From PubChem BioAssay AID624246 (National Center for Advancing Translational Sciences (NCATS), 2012) come the findings set out here.

Amino acid sequences for entries named in this document (tags omitted).
UniProt P11308, whole entry: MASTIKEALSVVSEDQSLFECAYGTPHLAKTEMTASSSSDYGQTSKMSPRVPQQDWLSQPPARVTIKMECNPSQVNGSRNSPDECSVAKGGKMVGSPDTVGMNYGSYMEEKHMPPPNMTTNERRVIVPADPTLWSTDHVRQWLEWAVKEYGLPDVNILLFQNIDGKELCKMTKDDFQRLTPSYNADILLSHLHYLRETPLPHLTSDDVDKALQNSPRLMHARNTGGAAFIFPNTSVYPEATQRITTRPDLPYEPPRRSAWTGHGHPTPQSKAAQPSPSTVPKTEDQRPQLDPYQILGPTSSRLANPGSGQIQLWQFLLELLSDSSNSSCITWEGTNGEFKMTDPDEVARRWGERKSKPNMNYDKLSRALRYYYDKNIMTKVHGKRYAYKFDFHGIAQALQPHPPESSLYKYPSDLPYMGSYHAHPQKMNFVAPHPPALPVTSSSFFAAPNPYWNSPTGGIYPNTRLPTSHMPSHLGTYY

SMILES strings stand for the structures. The entries are a selection whose mix differs from that of the whole data set. The source made the active and inactive calls. Calls come from the whole dose curve; as a rule, active = well fitted inhibition curve with a large enough effect in the polarisation, with a control signal flat; inconclusive = small, poorly fitted or top-dose-only effect, or effect the other way, or a change in a side signal; inactive = no such curve, though single readings can be large or run the other way; the % refers to the polarisation.

The assay concerns the target Transcriptional regulator ERG (Homo sapiens) (UniProt P11308). Kind of assay: qHTS for Small Molecule Inhibitors of the ERG Ets/DNA interaction. Note: % of control where 0% means no effect. The note with it: fluorescence polarization, His-ERG Ets domain / labelled DNA; at 76.9 µM (top of the series) unless noted. The text has this: The Ets family of proteins is a family of ~30 conserved transcription factors defined by the presence of an ~85 amino acid domain referred to as the Ets domain, which mediates sequence-specific DNA binding to a core DNA element GGAA/T.The Ets family member ERG has been linked to several neoplasms. […] More extensive studies of the effects of over-expression of ERG in prostate cells have recently been carried out and have shown that over-expression of ERG results in increased invasion. […] We will carry out a high throughout screen to identify inhibitors of the interaction between ERG and DNA using a fluorescence polarization (FP) assay with a His-tagged ERG Ets domain and fluorescently-labeled DNA probes to develop small molecule inhibitors of this interaction as probes to test this hypothesis and lay the groundwork for the development of targeted therapies against ERG. NIH Molecular Libraries Probe Production Network [MLPCN] NIH Chemical Genomics Center [NCGC] Grant: NS066464 PI Name: John Bushweller, University of Virgina
1.5 ul of protein solution (1 uM ERG domain in 300mM KCl, 50mM Tris-HCl, 1mM EDTA, 1mM DTT, pH 7.5); 20 nl Control plate and compound library plate; 1.5 ul mixture of 5 nM Fluorescein-DNA and 100nM Texas-615-DNA solution in same buffer as above solution; measure fluorescence polarization sequentially for fluorescein (Excitation = 480 nm, Emission = 535s, 535p nm) and Texas red (Excitation = 555 nm, Emission = 632s, 632p nm).
On to `COc1cc(C(=O)NCC2(N3CCOCC3)CCCCC2)cc(OC)c1C`, for which the FP activity, negative = inhibition is inactive: -3.45%.
With `O=C(NCC1(N2CCOCC2)CCCCC1)c1cc(Br)ccc1Cl` the figure was inactive: 2.16%; with `COc1ccc(C(=O)NCC2(N3CCOCC3)CCCCC2)cc1OC`, inactive: -3.02%.
With `CCOC(=O)N1CCC(Nc2ccc(C)cc2)CC1` the figure was inactive: 2.33%; with `N/C(=N\O)c1c(N)no[n+]1[O-]`, inactive: -1.89%.
To `CCc1cc(C(=O)NCC2(N3CCCCC3)CCCCC2)sc1C` belongs inactive: -12.4%.
For the compound `O=C(OC1CN2CCC1CC2)C1c2ccccc2C=Cc2ccccc21` (configuration not stated), the FP activity, negative = inhibition is inactive: -8.67%.
To `O=C(O)c1cccc(Nc2c([N+](=O)[O-])cc([N+](=O)[O-])cc2[N+](=O)[O-])c1` belongs inactive: -10%; to `O=C(NCC1(N2CCOCC2)CCCCC1)c1ccccc1[N+](=O)[O-]`, inactive: 5.88%; to `N#Cc1ccc(C(=O)NCC2(N3CCCCC3)CCCCC2)cc1`, inactive: 15.2%.
On to `O=C(NCC1(N2CCOCC2)CCCCC1)c1ccc([N+](=O)[O-])cc1`, for which the FP activity, negative = inhibition is inactive: -0.101%.
With `CC(C)(C)OC(=O)N1CCC(N(C(=O)c2ccccc2)c2ccc(Cl)cc2)CC1` the figure was inactive: 5.22%.
To `CCOC(=O)C(CC)C1=NC(C)(C)Cc2ccccc21.O=[N+]([O-])c1cc([N+](=O)[O-])c(O)c([N+](=O)[O-])c1` (configuration not stated) belongs inactive: -3.62%.
To `CN(C)C1(CNC(=O)c2cccc(C#N)c2)CCCCC1` belongs inactive: 9.06%.
As for `c1ccc(CN2CCC(Nc3ccccc3)CC2)cc1`, the FP activity, negative = inhibition is inactive: 7.37%.
Turning to `Cc1cc(N(CCCl)CCCl)ccc1C=O`, the FP activity, negative = inhibition is inactive: -2.58%.
With `O=C(NCC1(N2CCOCC2)CCCCC1)c1ccccc1`, the FP activity, negative = inhibition was inactive: -3.8%.
Take `CCCN1CCC(Nc2cc(OC)cc(OC)c2)CC1`: the FP activity, negative = inhibition is inactive: -12.9%.
As for `CN(C)C1(CNC(=O)c2ccc(C(C)(C)C)cc2)CCCCC1`, the FP activity, negative = inhibition is inactive: 2.36%.
To `CC(=O)N(c1ccccc1)C1CCNCC1` belongs inactive: -10.4%; to `COc1cc(OC)cc(C(=O)NCC2(N3CCCCC3)CCCCC2)c1`, inactive: 16.6%.
Regarding `Cc1ccc(C(=O)NCC2(N3CCCCC3)CCCCC2)o1`, the FP activity, negative = inhibition was inactive: -1.54%.
With `Cc1ccc(NC2(C#N)CCN(Cc3ccccc3)CC2)cc1` the figure was inactive: 7.02%; with `Cc1ccccc1NC1(C#N)CCN(Cc2ccccc2)CC1`, inactive: 5.13%; with `CCN1CCC(Nc2cccc(F)c2)CC1`, inactive: -8.92%.
With `Cc1ccccc1C(=O)NCC1(N(C)C)CCCCC1` the figure was inactive: -0.578%; with `O=C(NCC1(N2CCCCC2)CCCCC1)c1ccco1`, inactive: 4.18%; with `CC(C)(C)c1ccc(C(=O)NCC2(N3CCOCC3)CCCCC2)cc1`, inactive: -8.06%.
Consider `CN(C)c1ccc(C(=O)NCC2(N3CCCCC3)CCCCC2)cc1`, for which the FP activity, negative = inhibition is inactive: 1.21%.
With `Cn1c(=O)[nH]cc(N(CCCl)CCCl)c1=O`, the FP activity, negative = inhibition was inactive: 5.68%.
With `CCOc1ncccc1C(=O)NCC1(N2CCOCC2)CCCCC1` the figure was inactive: 0.733%; with `CN1CCC(Nc2ccc(F)c(Cl)c2)CC1`, inactive: -2.14%.
With `CC(C)(C)OC(=O)N1CCC(Nc2ccccc2)CC1` the figure was inactive: -4.33%; with `O=C(O)C1(Nc2ccccc2)CCN(Cc2ccccc2)CC1`, inactive: 0.0946%.
For the compound `CCCOc1ccc(C(=O)NCC2(N(C)C)CCCCC2)cc1`, the FP activity, negative = inhibition was inactive: 2.91%.
In the case of `COc1cccc(C(=O)N(c2cc(C)cc(C)c2)C2CCN(C(=O)OC(C)(C)C)CC2)c1`, the FP activity, negative = inhibition is inactive: -16.3%.
With `COc1cc(OC)cc(C(=O)NCC2(N3CCOCC3)CCCCC2)c1` the figure was inactive: 1.2%.
Regarding `COc1cc(C(=O)NCC2(N3CCOCC3)CCCCC2)cc(OC)c1OC`, the FP activity, negative = inhibition was inactive: 3.59%.
With `CCC(CO)(C(=O)OC1CN2CCC1CC2)c1ccccc1` (configuration not stated) the figure was inactive: -5.77%; with `CN1CCC(Nc2ccc(Cl)cc2)CC1`, inactive: -6.82%.
As to `COc1ccc(C(=O)NCC2(N3CCCCC3)CCCCC2)cc1`, the FP activity, negative = inhibition was inactive: -7.56%.
With `CC(C)(C)OC(=O)N1CCC(N(C(=O)c2ccccc2)c2ccc(F)cc2)CC1` the figure was inactive: -3.65%.
Regarding `COc1ccc(C(=O)NCC2(N3CCCCC3)CCCCC2)c(OC)c1OC`, the FP activity, negative = inhibition is inactive: 4.62%.
On to `O=C(NCC1(N2CCCCC2)CCCCC1)c1ccc(=O)[nH]c1`, for which the FP activity, negative = inhibition was inactive: -8.68%.
In the case of `O=C(NCC1(N2CCCCC2)CCCCC1)c1cccs1`, the FP activity, negative = inhibition was inactive: -5.24%.
To `CSc1ccccc1C(=O)NCC1(N2CCCCC2)CCCCC1` belongs inactive: 8.03%; to `Cc1cccc(NC2(C#N)CCN(Cc3ccccc3)CC2)c1`, inactive: -14.4%.
